Results: patent publication US6248712

How the values were obtained:
human plasmin (human) [1] = biological target: human plasmin (human) (UniProt P00747)
human plasmin (human) [2] = biological target: human plasmin (human) (UniProt P00747); remark: listed apart in the source
[3] = biological target: human plasminogen (human) (UniProt P00747)

| Substance | Pro-u-PA index (%) and bound plasmin activity (ng) (human plasmin (human) [1]) [%] | Bound plasmin activity (%) at 3 h and 17 h (human plasmin (human) [2]) [%] | kinetic constants for Glu-plasminogen activation: Km, kcat, kcat /Km [3] [M⁻¹ s⁻¹] |
| --- | --- | --- | --- |
| aprotinin (from UniProt P00974) | 93 | 13.2 |  |
| human urokinase-type plasminogen activator, active two-chain 54 kD form (from UniProt P00749) (enzyme) |  |  | 29300 |
| u-PA bound to u-PAR on the cell surface (from UniProt P00749) |  |  | 139000 |
